Earlier results on one substance are cited in US20130338178A1, “SIRTUIN MODULATORS AS INHIBITORS OF CYTOMEGALOVIRUS” (THE TRUSTEES OF PRINCETON UNIVERSITY, priority 2011, published 2013).

In the data set the target is T1, SIRT2 (Homo sapiens, UniProt Q8IXJ6).
T1 sequence (Q8IXJ6 1-389): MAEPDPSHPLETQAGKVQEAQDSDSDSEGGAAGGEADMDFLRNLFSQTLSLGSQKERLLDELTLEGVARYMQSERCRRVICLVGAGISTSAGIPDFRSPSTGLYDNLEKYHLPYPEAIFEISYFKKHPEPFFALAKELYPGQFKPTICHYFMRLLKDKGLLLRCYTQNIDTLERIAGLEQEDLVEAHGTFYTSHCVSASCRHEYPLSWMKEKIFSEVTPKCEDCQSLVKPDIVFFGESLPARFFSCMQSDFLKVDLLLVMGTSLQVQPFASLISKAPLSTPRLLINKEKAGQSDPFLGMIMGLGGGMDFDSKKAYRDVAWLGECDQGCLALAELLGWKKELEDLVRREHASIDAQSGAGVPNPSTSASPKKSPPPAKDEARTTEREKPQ
As to conditions: cited from earlier work.

As usually defined, the IC50 is the midpoint of a concentration-inhibition curve. As to Cambinol, the IC50 is 59 µM.
